From ChEMBL document CHEMBL1287787, “Design and synthesis of disubstituted thiophene and thiazole based inhibitors of JNK” (Bioorg Med Chem Lett, 2010)

By UniProt entry, the sequences of proteins in these tests, tags left out. Where a name states a change or a piece, a line headed by the entry shows the natural chain unless it says otherwise.
UniProt P53779: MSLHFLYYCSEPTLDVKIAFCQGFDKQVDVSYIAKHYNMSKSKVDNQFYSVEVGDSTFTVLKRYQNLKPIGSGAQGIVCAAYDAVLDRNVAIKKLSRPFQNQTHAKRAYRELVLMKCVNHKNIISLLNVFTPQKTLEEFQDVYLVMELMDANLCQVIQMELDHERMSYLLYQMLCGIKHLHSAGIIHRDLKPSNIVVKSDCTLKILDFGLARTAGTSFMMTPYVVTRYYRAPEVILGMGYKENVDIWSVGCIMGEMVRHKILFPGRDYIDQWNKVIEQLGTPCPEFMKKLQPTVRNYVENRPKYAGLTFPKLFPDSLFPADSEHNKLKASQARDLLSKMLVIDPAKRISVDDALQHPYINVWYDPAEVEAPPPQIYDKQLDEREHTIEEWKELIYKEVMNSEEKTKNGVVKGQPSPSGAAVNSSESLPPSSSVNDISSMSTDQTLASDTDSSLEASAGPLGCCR
UniProt P45983: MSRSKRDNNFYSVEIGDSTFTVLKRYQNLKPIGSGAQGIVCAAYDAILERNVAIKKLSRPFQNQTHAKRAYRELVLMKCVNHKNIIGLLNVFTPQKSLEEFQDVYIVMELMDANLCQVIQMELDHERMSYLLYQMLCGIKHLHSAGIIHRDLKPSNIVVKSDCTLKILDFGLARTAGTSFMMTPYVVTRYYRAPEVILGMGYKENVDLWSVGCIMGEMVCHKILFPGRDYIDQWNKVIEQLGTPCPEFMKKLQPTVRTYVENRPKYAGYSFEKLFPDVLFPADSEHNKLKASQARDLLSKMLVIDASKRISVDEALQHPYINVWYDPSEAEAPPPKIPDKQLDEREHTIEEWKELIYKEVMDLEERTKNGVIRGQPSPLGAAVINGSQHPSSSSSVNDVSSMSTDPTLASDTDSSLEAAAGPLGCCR

Tests used:
[1] = target: Mitogen-activated protein kinase 10 (Homo sapiens, UniProt P53779); test: Inhibition of recombinant JNK3 after 60 mins by TR-FRET assay
[2] = target: Mitogen-activated protein kinase 8 (Homo sapiens, UniProt P45983); test: Inhibition of recombinant JNK1 after 60 mins by TR-FRET assay

IC50 [1] [nM]	IC50 [2] [nM]	Compound
3600	–	O=C(Cc1cccc2ccccc12)Nc1ccsc1-c1cc[nH]n1
9400	3400	Cc1cc(-c2sccc2NC(=O)Cc2cccc3ccccc23)n[nH]1
800	220	COc1ccc(CC(=O)Nc2ccsc2-c2ncco2)cc1
2200	–	COC(=O)c1sccc1NC(=O)Cc1cccs1
